In PubChem BioAssay AID588852 (The Scripps Research Institute Molecular Screening Center, 2011):
Values joined by “and” are separate entries in the source; they are usually repeats but may differ in a detail not shown here. Equal entries are not always repeated. The entries are a selection whose mix differs from that of the whole data set. Active and inactive are the calls of the source.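 The calls were made as follows: active = percent inhibition above its own plate's cutoff, namely the mean of that plate's compound wells plus 3 SD; inactive = the rest.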

Chains of the proteins cited; added tags and fusions are not shown. Lines headed by an entry give the natural chain unless they say otherwise; changes in a name come on top.
UniProt P11229: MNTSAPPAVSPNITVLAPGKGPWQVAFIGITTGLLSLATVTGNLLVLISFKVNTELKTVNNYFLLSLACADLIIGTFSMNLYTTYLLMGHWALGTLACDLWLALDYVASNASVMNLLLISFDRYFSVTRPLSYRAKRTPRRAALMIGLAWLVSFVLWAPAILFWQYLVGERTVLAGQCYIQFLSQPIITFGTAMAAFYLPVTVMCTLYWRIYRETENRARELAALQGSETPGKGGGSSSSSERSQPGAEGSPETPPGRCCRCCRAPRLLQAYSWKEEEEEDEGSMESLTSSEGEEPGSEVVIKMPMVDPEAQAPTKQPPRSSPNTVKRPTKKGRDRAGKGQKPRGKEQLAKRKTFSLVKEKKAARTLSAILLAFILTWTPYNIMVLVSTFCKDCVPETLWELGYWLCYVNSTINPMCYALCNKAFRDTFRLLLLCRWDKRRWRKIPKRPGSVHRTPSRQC

Each molecule was assayed against Muscarinic acetylcholine receptor M1 (Homo sapiens) (UniProt P11229) (assay: CHRM1 blockers of acetylcholine calcium response – CHO-K1 cells, Fluo-8 calcium fluorescence, 1536-well, primary screen (AID 588852;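 also: peak over basal fluorescence ratio during 140 s after agonist addition; 0% = ACh EC80 plus DMSO and 100% = DMSO alone without agonist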)). Details: CHO-K1 hM1, Fluo-8 calcium fluorescence, ACh EC80 antagonist; at 3 µM; stronger effect = higher value.

Structure (SMILES)	inhibition
CN(C(=O)Cc1ccccc1)[C@@H]1CC[C@]2(CCCO2)C[C@H]1N1CCCC1	inactive: -24.3%
CCOP1(=S)c2c(C)nn(CCC#N)c2N=C(c2ccc(F)cc2)N1C (stereo not drawn)	inactive: -18.7%
N#CCCN(C(=O)COC(=O)C(O)(c1ccccc1)c1ccccc1)c1ccc(F)cc1	inactive: -2.54%
CN(C(=O)Cc1ccc(Cl)c(Cl)c1)[C@H]1CC[C@@]2(CCCO2)C[C@@H]1N1CCCC1	inactive: -3.89%
O=[N+]([O-])c1ccc2c(c1)nnn2O	inactive: -0.48%
CN(C)C(=O)c1cc([N+](=O)[O-])cc2c1-c1c(cc([N+](=O)[O-])cc1[N+](=O)[O-])C2=O	inactive: 33.4%
NC(=O)Nc1ccc([As](=O)(O)O)cc1	inactive: 5.94%
COc1ccc(CC(C)NCC(O)c2ccc(O)c(NC=O)c2)cc1 (stereo not drawn)	inactive: -24.2% and inactive: -11.5%
Nc1ccccc1[As](=O)(O)c1ccccc1	inactive: 10.4%
O=C(O)COc1ccc([As](=O)(O)O)cc1[N+](=O)[O-]	inactive: -8.48%
O=P(Nc1nccs1)(Oc1ccccc1)Oc1ccccc1	inactive: 5.57%
O=P(Nc1nccs1)(c1ccccc1)c1nc2ccccc2s1 (stereo not drawn)	inactive: 0.09%
CCOP1(=S)c2c(C)nn(CCC#N)c2N=C(c2ccccc2F)N1C (stereo not drawn)	inactive: -5.63%
CS(=O)(=O)c1cc([N+](=O)[O-])c2no[n+]([O-])c2c1	inactive: -15.2%
CCOP(=O)(Nc1cccc2ccccc12)OCC	inactive: -10.9%
COc1cc(C2NCCC3(OCCO3)C2(C)C)cc(OC)c1OC (stereo not drawn)	inactive: -14.7%
Nc1cccc2c([As](=O)(O)O)cccc12	inactive: 0.13%
Cc1ccc(NCCc2c([N+](=O)[O-])cc([N+](=O)[O-])cc2[N+](=O)[O-])cc1	inactive: -3.89%
C[C@H]1C(=O)O[C@@H]2CCN3CC=C(COC(=O)[C@](C)(O)[C@]1(C)O)[C@H]23	inactive: -21.9%
CCCOP(=S)(Nc1nc(N)cc(=O)[nH]1)OCCC	inactive: -4.32%
Cc1cccc(OCC(=O)OC2CN3CCC2CC3)c1 (stereo not drawn)	inactive: 6.98%

Structure (SMILES)	inhibition
O=[As](O)(c1cccc(O)c1)c1cccc(O)c1	inactive: -12.2%
COc1ccc(C[C@H]2NC[C@H](O)[C@H]2OC(C)=O)cc1	inactive: -21.6%
CS(=O)(=O)c1ccc(Cl)c(NC(=O)COC(=O)C(O)(c2ccccc2)c2ccccc2)c1	inactive: 3.51%
O=[As](O)(O)c1cccnc1	inactive: -7.99%
CC(C)/C=N\N=C(\N)N[N+](=O)[O-]	inactive: -1.44%
CN(C(=O)Cc1ccc(Cl)c(Cl)c1)[C@@H]1CCCC[C@H]1N1CCCC1	inactive: -8.5%
CC1(CBr)Cn2c(nc3ccccc3c2=O)S1 (stereo not drawn)	inactive: -8.44%
COc1ccccc1CNC(=O)COC(=O)C(O)(c1ccccc1)c1ccccc1	inactive: 2.02%
CC(C)(C)C(=O)NC(Sc1ncccn1)C(Cl)(Cl)Cl (stereo not drawn)	inactive: -0.92%
O=P1(N(CCCl)CCCl)NCCC(C(F)(F)F)O1 (stereo not drawn)	inactive: -3.54%
Clc1n[nH]nc1-c1nn[nH][15n]1	inactive: -13.8%
CCOP(=O)(NC(=NC(C)c1ccccc1)NC(C)c1ccccc1)OCC (stereo not drawn)	inactive: -1.97%
O=P1(Nc2ccccn2)COc2ccccc2OC1	inactive: -10.5%
CCC1=CC2Cc3nc4ccc(Cl)cc4c(N)c3C(C1)C2 (stereo not drawn)	inactive: 7.79%
CCOP(=O)(Nc1ccc(C)cn1)OCC	inactive: -10.2%
CN(CCCl)Cc1cc(Cl)c(NC2=NCCN2)c(Cl)c1	inactive: -26.1%
Nc1cccc([As](=O)(O)c2ccccc2)c1	inactive: 3.94%
O=[N+]([O-])c1cc([As](=O)(O)O)ccc1O	inactive: -17.9%
O=[As](O)(c1cccs1)c1cccs1	inactive: -12.4%
Cc1ccc(OCC(=O)OC2CN3CCC2CC3)cc1 (stereo not drawn)	inactive: 9.79%
O=P1(Nc2ccc(Br)cn2)COc2ccccc2OC1	inactive: -6%

Structure (SMILES)	inhibition
NS(=O)(=O)c1cccc(NC(=O)COC(=O)C(O)(c2ccccc2)c2ccccc2)c1	inactive: -14.2%
Cc1ccc(S(=O)(=O)N(CCCN)CCCc2c(C)nc(N)[nH]c2=O)cc1	inactive: -5.58%
O=P1(Nc2ncccn2)COc2ccccc2OC1	inactive: -11.1%
CCCC1OP(=O)(Nc2ccccc2)OCC1CC (stereo not drawn)	inactive: 10.6%
O=C(/C=C/c1ccccc1)OC1CN2CCC1CC2 (stereo not drawn)	inactive: 3.63%
CC1CCC(C(C)C)C(OP(=O)(Nc2ccccn2)c2ccccc2)C1 (stereo not drawn)	inactive: 5.51%
Cc1ccc(C(=O)OC2CN3CCC2CC3)cc1 (stereo not drawn)	inactive: 6.48%
Cc1nn(-c2ccccc2)c2c1P(=O)(N1CCOCC1)N(C)C(c1ccccc1)=N2 (stereo not drawn)	inactive: -2.76%
O=P(Nc1ccccn1)(c1cccc2ccccc12)c1cccc2ccccc12	inactive: -1.88%
Cc1cc(SC(NC=O)C(Cl)(Cl)Cl)ncn1 (stereo not drawn)	inactive: -10.6%
O=[N+]([O-])c1ccc(Nc2ccc(Oc3ccc([N+](=O)[O-])cc3[N+](=O)[O-])cc2)c([N+](=O)[O-])c1	inactive: 12.2%
CCOC(=O)Nc1cccc([As](=O)(O)O)c1	inactive: -14.3%
COP(=O)(OC)N1CC1c1ccccc1 (stereo not drawn)	inactive: -11.5%
Cc1cc(SC(NC(=O)c2ccccc2)C(Cl)(Cl)Cl)nc(C(C)C)n1 (stereo not drawn)	inactive: 1.22%
CCOC(=O)Nc1ccc([As](=O)(O)O)c(O)c1	inactive: -25.2%
O=C(O)C(O)c1ccc(N(CCCl)CCCl)cc1 (stereo not drawn)	inactive: -9.31%
C/C=C1/CC(C)C(C)(O)C(=O)OCC2CCN3CCC(OC1=O)C23 (stereo not drawn)	active: 99.6%
CC1CCNP(=O)(N(CCCl)CCCl)O1 (stereo not drawn)	inactive: -3.34%
CCC(C)N(CC(C)C)C(=S)SC(NC(C)=O)C(Cl)(Cl)Cl (stereo not drawn)	inactive: -15.4%
CSc1ccc(Nc2c([N+](=O)[O-])cc([N+](=O)[O-])cc2[N+](=O)[O-])cc1	active: 29.2%
O=C(OC1CN2CCC1CC2)c1cccc([N+](=O)[O-])c1 (stereo not drawn)	inactive: 18.2%
